Test results: patent US10689367B2, “Triazole pyridyl compounds as agonists of the APJ receptor” (AMGEN INC., priority 2016, dated 2020)

Protein sequences, listed by entry. Tags and fused reporters are not part of them.
UniProt P35414, whole entry: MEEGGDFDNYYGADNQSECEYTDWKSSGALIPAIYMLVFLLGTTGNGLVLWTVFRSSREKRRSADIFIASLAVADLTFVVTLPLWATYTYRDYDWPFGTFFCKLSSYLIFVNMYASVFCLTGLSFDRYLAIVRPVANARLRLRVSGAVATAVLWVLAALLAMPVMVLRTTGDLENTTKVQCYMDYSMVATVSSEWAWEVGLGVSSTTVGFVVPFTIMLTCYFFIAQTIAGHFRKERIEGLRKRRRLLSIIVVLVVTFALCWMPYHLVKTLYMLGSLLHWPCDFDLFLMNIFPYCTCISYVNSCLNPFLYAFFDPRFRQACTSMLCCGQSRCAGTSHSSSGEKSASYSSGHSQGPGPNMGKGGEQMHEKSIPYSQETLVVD

Molecular target: APJ receptor (Homo sapiens (Human), UniProt P35414)
Assay: [35S]GTPγS binding assay on membranes from CHO cells stably expressing human APJ receptor
Assay type: biochemical
Settings: read-out: Activity hAPJ SPA EC50 IP, membranes of CHO cells stably expressing human APJ receptor
Method: The human APJ receptor was cloned by polymerase chain reaction and the gene encoding the receptor was subcloned in pFLAG-CMV™-3 expression vector (Sigma, Saint Louis, Mo. USA) in-house at Amgen. A GTPγS binding assay was performed on membranes prepared from CHO cells stably expressing human APJ receptor. The optimum experimental conditions for the concentrations of GDP, MgCl2, and NaCl in the assay buffer were initially determined. […] Incubation was at RT for 90 min and the microplate was read using a ViewLux™ ultra HTS Microplate Imager (PerkinElmer, Inc.). All the results presented are means of several independent experiments and analyzed by non-linear regression methods using the commercially available program Prism (GraphPad, San Diego, Calif.) providing the EC50 values detailed in Table 27.

Row | SMILES | EC50 [nM]
1 | COc1cccc(-c2nnc(NS(=O)(=O)[C@@H](C)[C@H](OC)c3ncc(Cl)cn3)n2C(C)C2COCCO2)n1 (single isomer, unassigned) [142.0] | 11
2 | COc1cccc(-c2nnc(NS(=O)(=O)[C@@H](C)[C@H](OC)c3ncc(Cl)cn3)n2C(C)C2COCCO2)n1 (single isomer, unassigned) [143.0] | 9.8
3 | COc1cccc(-c2nnc(NS(=O)(=O)[C@@H](C)[C@H](C)c3ncc(Cl)cn3)n2C(C)C2COCCO2)n1 (single isomer, unassigned) [144.0] | 14
4 | COc1cccc(-c2nnc(NS(=O)(=O)[C@@H](C)[C@@H](OC(C)C)c3ncc(Cl)cn3)n2C(C)C2COCCO2)n1 (single isomer, unassigned) [146.0] | 1.5
5 | COc1cccc(-c2nnc(NS(=O)(=O)[C@@H](C)[C@H](C)c3ncc(Cl)cn3)n2C(C)C2COCCO2)n1 (single isomer, unassigned) [145.0] | 19
6 | COc1cccc(-c2nnc(NS(=O)(=O)[C@@H](C)[C@@H](OC(C)C)c3ncc(Cl)cn3)n2C(C)C2COCCO2)n1 (single isomer, unassigned) [147.0] | 4.9
7 | COc1cccc(-c2nnc(NS(=O)(=O)[C@@H](C)[C@H](OC)c3ncc(Cl)cn3)n2C(C)C2CN(C)CCO2)n1 (single isomer, unassigned) | 11
